From ChEMBL document CHEMBL1131422, “N-(2-Benzoylphenyl)-L-tyrosine PPARgamma agonists. 1. Discovery of a novel series of potent antihyperglycemic and antihyperlipidemic agents” (J Med Chem, 1998) come the findings set out here.

The test concerns the target T1, Peroxisome proliferator-activated receptor alpha (Homo sapiens) (UniProt Q07869).
T1 sequence (whole entry): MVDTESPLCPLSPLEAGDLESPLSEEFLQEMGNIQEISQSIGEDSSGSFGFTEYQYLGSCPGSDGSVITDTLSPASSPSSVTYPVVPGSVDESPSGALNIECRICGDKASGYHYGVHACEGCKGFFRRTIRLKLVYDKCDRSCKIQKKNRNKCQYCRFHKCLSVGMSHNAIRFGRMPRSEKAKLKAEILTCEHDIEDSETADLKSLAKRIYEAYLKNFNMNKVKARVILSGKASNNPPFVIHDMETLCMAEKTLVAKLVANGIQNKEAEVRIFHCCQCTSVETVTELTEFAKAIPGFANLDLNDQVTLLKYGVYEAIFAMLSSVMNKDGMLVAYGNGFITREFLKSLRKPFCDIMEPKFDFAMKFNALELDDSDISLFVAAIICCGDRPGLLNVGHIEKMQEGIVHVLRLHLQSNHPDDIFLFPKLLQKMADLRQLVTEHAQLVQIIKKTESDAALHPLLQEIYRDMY
In words: The compound was tested in vitro for inhibiting the 50% binding of Peroxisome proliferator activated receptor alpha.

As for `Cc1oc(-c2ccccc2)nc1CCOc1ccc(C[C@H](Nc2ccccc2C(=O)c2ccccc2)C(=O)O)cc1` [FARGLITAZAR], the Log Ki was determined as 6.31 µM.
